According to patent US20040146519A1, “Inducing cellular immune responses to carcinoembryonic antigen using peptide and nucleic acid compositions” (priority 2002, published 2004):

Columns and labels:
HLA-A*0101 = HLA-A*0101 (Homo sapiens, UniProt P04439, A114D/A174V/A182V/D101N/D185E/E176A/E190D/L180R/Q94H/R68K/S129P/T187R/V100A/V91M/W191G); assay: HLA class I binding assay, purified HLA-A*0101; details: for A*0101: relative binding ratio = IC50 of standard peptide / IC50 of test peptide, CEA A01 supermotif peptides; for IC50: read-out: A*[…], Table XXVb, A01 analog peptides
HLA-A*0301 = HLA-A*0301 (Homo sapiens, UniProt P04439); assay: HLA class I binding assay, purified HLA-A*0301; details: for A*0301 binding data: CEA A03 motif peptides, unit not given; for IC50: Table XXIII, binding affinity
HLA-A*1101 = HLA-A*1101 (Homo sapiens, UniProt P04439, A114D/D185E/E176A/F33Y/L180Q/S129P/T187R); assay: HLA class I binding assay, purified HLA-A*1101; details: CEA A11 motif peptides; unit not given
[1] = test system: A3-supertype molecules (A*0301, A*1101, A*3101, A*3301, A*6801); assay: A3-supertype cross-reactive binding (alleles bound of five tested); parameters: species or system human; details: Table XXIII
Method: Using methodology similar to that used to develop HLA-A2 analogs, analogs of HLA-A3 and HLA-B7 supermotif-bearing epitopes are also generated. […] The analog peptides are then tested for the ability to bind A*03 and A*11 (prototype A3 supertype alleles).

HLA-A*3101 = HLA-A*3101 (Homo sapiens, UniProt P04439, A270S/D185E/E176V/E277Q/F33T/G231S/G80R/H175R/I121M/I218V/I322F/K168Q/L300P/L318F/M331R/P217A/Q94H/R138Q/T323A/T345S/T97I/V358M); assay: HLA class I binding assay, purified HLA-A*3101; details: Table XXIII, binding affinity
HLA-A*6802 = HLA-A*6802 (Homo sapiens, UniProt P04439, A269V/D140Y/D185E/E176V/E277Q/E87N/F33Y/G231S/I121R/I166T/I218V/L180W/L300P/L318F/N151K/P208A/P217A/Q86R/R138H/R169H/S129P/T345S/V36M); assay: HLA class I binding assay, purified HLA-A*6802; details: Table XXVIIa, binding affinity
[2] = test system: .221A2.1 cells pulsed with peptide; details: Kawashima et al., Hum. Immunol. 59:1-14, 1998; cited from earlier work

CC[C@H](C)[C@H](NC(=O)[C@@H](NC(=O)[C@@H]1CCCN1)[C@@H](C)O)C(=O)N[C@@H](CO)C(=O)N1CCC[C@H]1C(=O)N[C@@H](CO)C(=O)N[C@@H](Cc1ccc(O)cc1)C(=O)N[C@H](C(=O)N[C@@H](Cc1ccc(O)cc1)C(=O)N[C@@H](Cc1ccc(O)cc1)C(=O)O)[C@@H](C)O [418/10]
A*0101 (HLA-A*0101): 0.0770 | A*0301 binding data (HLA-A*0301): 0.0006 | IC50 (HLA-A*0301): > 10000 nM | A*1101 binding data (HLA-A*1101): 0.0018 | No. of A3 Alleles Crossbound [1]: 3

C[C@H](NC(=O)[C@H](CO)NC(=O)[C@@H](N)Cc1c[nH]cn1)C(=O)N[C@@H](CO)C(=O)N[C@@H](CC(N)=O)C(=O)N1CCC[C@H]1C(=O)N[C@@H](CO)C(=O)N1CCC[C@H]1C(=O)N[C@@H](CCC(N)=O)C(=O)N[C@@H](Cc1ccc(O)cc1)C(=O)O [616/10]
A*0101 (HLA-A*0101): 0.3400 | A*0301 binding data (HLA-A*0301): 0.0006 | A*1101 binding data (HLA-A*1101): 0.0001

CC(C)C[C@H](NC(=O)[C@H](CC(C)C)NC(=O)[C@@H](NC(=O)[C@H](CC(C)C)NC(=O)[C@@H](NC(=O)[C@@H](N)CCCNC(=N)N)[C@@H](C)O)[C@@H](C)O)C(=O)N[C@@H](CO)C(=O)N[C@H](C(=O)N[C@H](C(=O)N[C@@H](CCCNC(=N)N)C(=O)O)[C@@H](C)O)C(C)C [CEA.376]
IC50 (HLA-A*3101): 6.2 nM

CC(C)C[C@H](NC(=O)[C@@H](N)C(C)C)C(=O)N[C@@H](Cc1ccc(O)cc1)C(=O)NCC(=O)N1CCC[C@H]1C(=O)N[C@@H](CC(=O)O)C(=O)N[C@@H](CC(=O)O)C(=O)N1CCC[C@H]1C(=O)N[C@H](C(=O)N[C@H](C(=O)O)C(C)C)[C@@H](C)O [CEA.411.V10]
IC50 (HLA-A*6802): > 10000 nM

CC(C)[C@H](NC(=O)[C@@H](N)[C@@H](C)O)C(=O)N[C@@H](CO)C(=O)N1CCC[C@H]1C(=O)N[C@@H](CO)C(=O)N[C@@H](Cc1ccc(O)cc1)C(=O)N[C@H](C(=O)N[C@@H](Cc1ccc(O)cc1)C(=O)N[C@@H](Cc1ccc(O)cc1)C(=O)N[C@@H](CCCCN)C(=O)O)[C@@H](C)O [CEA.419.V2K10]
IC50 (HLA-A*0301): 69 nM

C[C@H](NC(=O)[C@@H]1CCCN1C(=O)CNC(=O)[C@@H]1CCCN1C(=O)[C@@H](NC(=O)[C@H](CC(=O)O)NC(=O)[C@H](CCC(N)=O)NC(=O)[C@@H](N)CCC(N)=O)[C@@H](C)O)C(=O)N[C@@H](Cc1ccc(O)cc1)C(=O)O [Peptide 57.0004]
IC50 (HLA-A*0101): 56.8 nM

C[C@@H](O)[C@H](NC(=O)[C@H](Cc1ccc(O)cc1)NC(=O)[C@H](CO)NC(=O)[C@@H]1CCCN1C(=O)[C@H](CO)NC(=O)[C@H](CC(=O)O)NC(=O)[C@@H](NC(=O)[C@@H]1CCCN1)[C@@H](C)O)C(=O)N[C@@H](Cc1ccc(O)cc1)C(=O)O [Peptide 57.0011]
IC50 (HLA-A*0101): 37.9 nM

CC(C)C[C@H](NC(=O)[C@H](CC(N)=O)NC(=O)[C@H](CC(C)C)NC(=O)[C@H](CC(N)=O)NC(=O)[C@H](C)NC(=O)CNC(=O)[C@H](CO)NC(=O)[C@H](CC(C)C)NC(=O)[C@@H](N)Cc1ccc(O)cc1)C(=O)O [compound 605]
previously identified as an epitope [2]: previously identifed
